Assays:
[1] = target: recombinant human-porcine hybrid BChE (human BChE variant Y282N/G283H/T284M/P285L; YGTP SEQ ID NO: 2 to NHML SEQ ID NO: 4) (Homo sapiens, UniProt P06276, G311H/P313L/T312M/Y310N); test: Substrate titration; conditions: 7.8 μM to 10 mM BTC, 10 mM MOPS pH 7.4, 37° C.
[2] = target: recombinant human WT BChE (wild type; UniProtKB P06276.1) (Homo sapiens, UniProt P06276); test: Substrate titration; conditions: 7.8 μM to 10 mM BTC, 10 mM MOPS pH 7.4, 37° C.
[3] = read-out: KM (butyrylthiocholine)

The chains behind the UniProt entries cited, without tags or fusion partners. Residues count along the entry.
UniProt P06276, 29-602 Y310N/G311H/T312M/P313L: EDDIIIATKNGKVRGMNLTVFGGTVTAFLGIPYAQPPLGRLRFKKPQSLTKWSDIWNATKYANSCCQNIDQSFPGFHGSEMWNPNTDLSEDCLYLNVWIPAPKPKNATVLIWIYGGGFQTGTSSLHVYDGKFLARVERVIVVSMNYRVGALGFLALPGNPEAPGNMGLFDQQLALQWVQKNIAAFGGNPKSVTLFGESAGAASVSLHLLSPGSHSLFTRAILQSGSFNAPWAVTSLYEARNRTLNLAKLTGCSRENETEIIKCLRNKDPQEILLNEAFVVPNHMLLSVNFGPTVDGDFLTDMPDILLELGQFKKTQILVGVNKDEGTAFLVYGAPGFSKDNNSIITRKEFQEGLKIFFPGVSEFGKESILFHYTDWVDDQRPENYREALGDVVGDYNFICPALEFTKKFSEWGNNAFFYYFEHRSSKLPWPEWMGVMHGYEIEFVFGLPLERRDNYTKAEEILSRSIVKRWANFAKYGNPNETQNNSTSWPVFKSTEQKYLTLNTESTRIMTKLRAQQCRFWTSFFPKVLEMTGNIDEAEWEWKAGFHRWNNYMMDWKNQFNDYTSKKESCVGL
UniProt P06276, 29-602: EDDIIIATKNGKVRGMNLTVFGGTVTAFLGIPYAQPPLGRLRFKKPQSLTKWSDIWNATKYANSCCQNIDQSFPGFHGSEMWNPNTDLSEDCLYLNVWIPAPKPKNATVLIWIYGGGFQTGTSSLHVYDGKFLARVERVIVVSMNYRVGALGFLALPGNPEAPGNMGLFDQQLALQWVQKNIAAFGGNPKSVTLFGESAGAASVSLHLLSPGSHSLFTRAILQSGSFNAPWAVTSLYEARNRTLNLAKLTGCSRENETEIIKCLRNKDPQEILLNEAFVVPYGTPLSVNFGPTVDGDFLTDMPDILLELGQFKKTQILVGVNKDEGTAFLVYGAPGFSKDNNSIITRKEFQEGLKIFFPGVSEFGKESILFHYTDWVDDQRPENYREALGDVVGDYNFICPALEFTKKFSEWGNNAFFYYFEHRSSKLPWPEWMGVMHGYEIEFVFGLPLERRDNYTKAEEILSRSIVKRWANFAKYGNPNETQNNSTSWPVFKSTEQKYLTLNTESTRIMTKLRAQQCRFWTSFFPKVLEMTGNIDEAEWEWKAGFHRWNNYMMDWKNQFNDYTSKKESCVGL

Compound	Vmax (butyrylthiocholine) [1]	Vmax (butyrylthiocholine) [2]	Km [1, 3] [µM]	Km [2, 3] [µM]
CCCC(=O)SCC[N+](C)(C)C.[I-]	8.78	20.5	–	–
CCCC(=O)SCC[N+](C)(C)C	–	–	292	456
